Assay: Determination of inhibitor concentration in mouse plasma after intraperitoneal and oral dosing
Assay type: in vivo
Conditions: vehicle PEG400:H2O pH 2.3 30:70

Row | SMILES | Cmax (female, IP, 25 mg/kg) | plasma half-life (T1/2) (IP, 25 mg/kg) | plasma half-life (T1/2) (PO, 50 mg/kg)
1 | CCn1nc(C)cc1C(=O)Nc1cc(C(=O)c2ccc3c(/C=C/c4ccccn4)n[nH]c3c2)ccc1C [Example 41(ee), 6-[3-((1-Ethyl-3-methyl-1H-pyrazol-5-yl)carboxanido)-4-methylbenzoyl]-3-E-[2-(pyridin-2-yl)ethenyl]-1H-indazole] | > 5000 ng/mL | – | –
2 | CNC(=O)c1ccccc1Sc1ccc2c(/C=C/c3ccccn3)n[nH]c2c1 [Example 33(a), 6-[2-(methylcarbamoyl)phenylsulfanyl]-3-E-[2-(pyridin-2-yl)ethenyl]indazole] | – | 1.1 h | 0.8 h
3 | O=C(NCc1cccc(F)c1)c1ccccc1Sc1ccc2c(/C=C/c3ccccn3)n[nH]c2c1 [Example 35(ff)] | – | 1.7 h | –
4 | O=C(Nc1cccc(Oc2ccc3c(/C=C/c4c[nH]cn4)n[nH]c3c2)c1)c1ccccc1 [Example 32(a), 6-[3-Benzamidophenoxy]-3-E-[2-(1H-imidazol-4-yl)ethenyl]-1H-indazole] | – | 3.7 h | 1.1 h

Reference: US6534524B1, “Indazole compounds and pharmaceutical compositions for inhibiting protein kinases, and methods for their use” (Agouron Pharmaceuticals, Inc., priority 1999, dated 2003)
